Experimental data: ChEMBL document CHEMBL1772947, “Discovery and optimization of a novel, selective and brain penetrant M1 positive allosteric modulator (PAM): the development of ML169, an MLPCN probe” (Bioorg Med Chem Lett, 2011)

Protein sequences, listed by entry. Tags and fused reporters are not part of them. Lines headed by an entry give the natural chain unless they say otherwise; changes in a name come on top.
UniProt P08482: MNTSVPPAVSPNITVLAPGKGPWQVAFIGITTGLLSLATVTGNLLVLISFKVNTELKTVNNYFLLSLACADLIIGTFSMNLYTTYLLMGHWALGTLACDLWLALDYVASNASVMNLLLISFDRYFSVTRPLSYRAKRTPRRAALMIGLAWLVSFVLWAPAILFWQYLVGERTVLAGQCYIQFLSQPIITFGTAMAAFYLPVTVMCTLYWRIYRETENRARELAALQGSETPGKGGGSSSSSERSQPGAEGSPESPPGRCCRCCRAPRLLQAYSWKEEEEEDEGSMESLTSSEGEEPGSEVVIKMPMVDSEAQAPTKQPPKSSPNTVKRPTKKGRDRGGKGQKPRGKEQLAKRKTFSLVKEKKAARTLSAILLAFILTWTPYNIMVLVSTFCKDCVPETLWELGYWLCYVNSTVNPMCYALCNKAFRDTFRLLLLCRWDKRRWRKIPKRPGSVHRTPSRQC

Target: Muscarinic acetylcholine receptor M1 (Rattus norvegicus) (UniProt P08482)
Assay: Allosteric modulation at rat M1 receptor expressed in CHO cells by calcium mobilization assay relative to acetylcholine
Format: functional, cell-based
Parameters: concentration or dose not given beside the values

Activity: 83%
Compound: Cc1cc(NC(=O)CS(=O)(=O)c2cn(Cc3ccccc3Cl)c3ccccc23)no1
